The values below come from PubChem BioAssay (NCI).

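Compound exposure: 48 hours, 5 concentrations, 96-well plates. GI50 is the concentration that inhibits growth by half. At the TGI there is no net growth.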

In general, GI50 refers to the concentration at which growth is held to half of that of the control. As usually defined, the TGI is the concentration at which net growth stops. Read a low TGI as greater sensitivity of the cells.

The test system of this experiment is MDA-MB-468 breast. As to the kind of experiment: DTP human tumour cell line panel, 48 h.

In the case of `COc1c(C)cc(N(CCCl)CCCl)c2ccccc12`, the GI50 is 0.955 µM and the concentration for total growth inhibition (TGI) worked out at 3.89 µM.
